Measurements from PubChem BioAssay AID1347069 (National Center for Advancing Translational Sciences (NCATS), 2019).
This is a selection; strong and weak results do not stand in their true shares. Some of these compounds have results that are not shown, active ones among them. Active and inactive are the calls of the source. Calls come from the whole dose curve; as a rule, active = well fitted inhibition curve with a large enough effect; inconclusive = small, poorly fitted or top-dose-only effect; inactive = flat fitted curve, though single readings scatter.

By UniProt entry, the sequences of proteins in these tests, tags left out.
UniProt Q99816, whole entry: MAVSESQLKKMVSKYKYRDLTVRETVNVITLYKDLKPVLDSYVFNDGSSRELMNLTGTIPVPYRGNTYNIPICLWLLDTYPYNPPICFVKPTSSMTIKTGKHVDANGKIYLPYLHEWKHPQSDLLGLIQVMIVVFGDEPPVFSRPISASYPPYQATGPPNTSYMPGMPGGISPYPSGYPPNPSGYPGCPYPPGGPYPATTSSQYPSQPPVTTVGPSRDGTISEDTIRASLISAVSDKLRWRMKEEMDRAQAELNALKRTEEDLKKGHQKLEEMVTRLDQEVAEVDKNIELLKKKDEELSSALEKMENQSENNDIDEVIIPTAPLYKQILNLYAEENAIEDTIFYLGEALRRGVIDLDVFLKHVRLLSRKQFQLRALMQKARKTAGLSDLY

Each compound was assayed against Tumor susceptibility gene 101 protein (Homo sapiens) (UniProt Q99816) (assay: qHTS Validation Assay for Inhibitors of HIV-1 Budding by Blocking the Interaction of PTAP/TSG101: Sytravon Library Screen). Conditions: Fluorescence polarization, FITC-PTAP peptide/Tsg101, 20 min; at 115 µM (top of the series).
Description: Stages of the HIV-1 replication cycle, specifically virus assembly and release, provide underexploited targets for the development of novel antiviral inhibitors. The late stages of HIV-1 replication are mediated by the Gag precursor protein, Pr55Gag. Expression of Pr55Gag is both necessary and sufficient for the production of virus-like particles from Gag-expressing cells. The Gag protein hijacks key host proteins involved in endocytic machinery of the host cell to promote endosomal processing and viral budding. The budding process requires a direct interaction between a […] (PTAP) motif in the p6 domain of Gag and the cellular endosomal sorting protein known as Tsg101. In this way, the Gag PTAP motif promotes the host cells to recruit viral particles to the plasma membrane where the new viral particles are released, effectively turning the host cells into viral factories. A fluorescence polarization assay has been developed to quantitatively measure the PTAP-Tsg101 interaction which can be used to screen for inhibitors of this interaction. This assay was run against the NCGC Sytravon Library collection. NIH Molecular Libraries Probe Production Network [MLPCN] NIH Chemical Genomics Center [NCGC] Grant: R03 MH087464-01A1 PI Name: Dr. Eric Freed, NCI
Two uL of the Tsg101 binding domain in buffer (10 mM HEPES pH 7.5; 0.15 M NaCl, 0.01% Tween 20; 3 mM EDTA;0.1 mM TCEP) was dispensed into Greiner black MB 1536-well plates (final concentration 10 uM). Then, 23 nL of compounds or DMSO were delivered to each well using a pin tool. Finally, 2 uL of a FITC-labeled peptide containing the PTAP motif (1) in the same buffer was dispensed (50 nM final concentration) and the binding was allowed to proceed for 20 min. at r.t. Fluorescent polarization was determined using FITC excitation and polarized emission filters on a Perkin Elmer Envision. Assay cut-off (positive/negative criteria): Actives defined by CRC class, <25 µM; Efficacy <60% inhibition. The total fluorescent intensity from S and P channels will be used to flag fluorescent compounds.
Note: 0% is about no effect.

Row | SMILES | activity change, negative = inhibition
1 | COc1ccc(C(=O)NCC2(N(C)C)CCCCC2)cc1Cl | inactive: 0.539%
2 | CC(C)COc1ccc(C(=O)NCC2(N(C)C)CCCCC2)cc1 | inactive: 3.98%
3 | COc1cccc(C(=O)NCC2(N3CCOCC3)CCCCC2)c1 | inactive: 0.0518%
4 | CC(C)Oc1ccc(C(=O)NCC2(N(C)C)CCCCC2)cc1 | inactive: 0.48%
5 | Cc1cccc(C(=O)NCC2(N(C)C)CCCCC2)c1 | inactive: -0.349%
6 | COc1cc(C(=O)NCC2(N(C)C)CCCCC2)cc(OC)c1OC | inactive: 1.04%
7 | CN(C)C1(CNC(=O)c2ccccc2F)CCCCC1 | inactive: -0.161%
8 | CN(C)C1(CNC(=O)c2cccc(Cl)c2)CCCCC1 | inactive: -1.5%
9 | CCCCOc1ccccc1C(=O)NCC1(N(C)C)CCCCC1 | inactive: -0.149%
10 | CN(C)C1(CNC(=O)c2ccccc2[N+](=O)[O-])CCCCC1 | inactive: 0.892%
11 | CCOc1cccc(C(=O)NCC2(N(C)C)CCCCC2)c1 | inactive: 4.46%
